One data set concerns human spermatozoa. As to the kind of experiment: Effect on human spermatozoa. Particulars: dilutions of less than 1:2×10^10 of the working concentrations. It counts as cell-based.
Data set [1] is described as follows: Physical properties (viscosity, stability). Particulars: compared with trioxolane derivative of cis 3-hexene-1-ol.
Data set [2] has as its system Myeloma cell line (×63 balb/c line). As to the kind of experiment: Effect on myeloma cell line. It counts as cell-based, balb/c (mouse). Particulars: dilutions of less than 1:2×10^10 of the working concentrations.
Data set [3] is described as follows: Tolerability of mice (intraperitoneal). Type of data set: in vivo. The settings on record: IP, 20 g balb/c mice.
A further data set deals with lymphocytes. The experiment in a line: Immunomodulatory activity (bone marrow examination). Type of data set: in vivo, Balb/c mice. Particulars: compared to mice without any drug.
Data set [4] is described as follows: Primary skin irritation test. Particulars: 1.0% in isopropyl myristate, 0.5 ml per site, 24 h patch, intact and abraded skin, read 24 and 72 hours.

Bounds are passed on as bounds.

As to Geraniol trioxolane, in the data set with human spermatozoa, the “Time to kill human spermatozoa” value was at most 1 min. For the same substance, in data set [1], the “Stability (comparison)” value is “less stable” and the “Viscosity (comparison)” value is “more viscous”. Also, the “Time to kill myeloma cell line” value in data set [2] was at most 48 h. The substance also came in with a Minimum lethal dose in data set [3] of 3000 mg/kg. Also, the “New clones of lymphocytes in bone marrow” value with lymphocytes is “increase in new clones of lymphocytes”.
Take linalool trioxolane: in data set [4], the “Primary Irritation Index (PII)” value turned out to be 1.0.
